Literature values as cited in US20090317451A1, “PRESSURE-SENSITIVE ADHESIVE FOR SKIN SURFACE AND/OR TRANSDERMAL SUBSTANCE DELIVERY” (priority 2008, published 2009).

conditions: solvent(s) in which soluble; Merck 12th edition or other reference

Row | Substance | Reported Solubility
1 | Estrogen | Alcohol slight
2 | Bleomycin glycopeptice | Water, methanol
3 | Alendronic acid salts | Alcohol
